This is an account of results in US11638707B2, “Substituted amino triazoles useful as chitinase inhibitors” (Molecure S.A., priority 2019, dated 2023).

Protein sequences, listed by entry. Tags and fused reporters are not part of them. Lines headed by an entry give the natural chain unless they say otherwise; changes in a name come on top. Residues count along the entry.
UniProt Q12809: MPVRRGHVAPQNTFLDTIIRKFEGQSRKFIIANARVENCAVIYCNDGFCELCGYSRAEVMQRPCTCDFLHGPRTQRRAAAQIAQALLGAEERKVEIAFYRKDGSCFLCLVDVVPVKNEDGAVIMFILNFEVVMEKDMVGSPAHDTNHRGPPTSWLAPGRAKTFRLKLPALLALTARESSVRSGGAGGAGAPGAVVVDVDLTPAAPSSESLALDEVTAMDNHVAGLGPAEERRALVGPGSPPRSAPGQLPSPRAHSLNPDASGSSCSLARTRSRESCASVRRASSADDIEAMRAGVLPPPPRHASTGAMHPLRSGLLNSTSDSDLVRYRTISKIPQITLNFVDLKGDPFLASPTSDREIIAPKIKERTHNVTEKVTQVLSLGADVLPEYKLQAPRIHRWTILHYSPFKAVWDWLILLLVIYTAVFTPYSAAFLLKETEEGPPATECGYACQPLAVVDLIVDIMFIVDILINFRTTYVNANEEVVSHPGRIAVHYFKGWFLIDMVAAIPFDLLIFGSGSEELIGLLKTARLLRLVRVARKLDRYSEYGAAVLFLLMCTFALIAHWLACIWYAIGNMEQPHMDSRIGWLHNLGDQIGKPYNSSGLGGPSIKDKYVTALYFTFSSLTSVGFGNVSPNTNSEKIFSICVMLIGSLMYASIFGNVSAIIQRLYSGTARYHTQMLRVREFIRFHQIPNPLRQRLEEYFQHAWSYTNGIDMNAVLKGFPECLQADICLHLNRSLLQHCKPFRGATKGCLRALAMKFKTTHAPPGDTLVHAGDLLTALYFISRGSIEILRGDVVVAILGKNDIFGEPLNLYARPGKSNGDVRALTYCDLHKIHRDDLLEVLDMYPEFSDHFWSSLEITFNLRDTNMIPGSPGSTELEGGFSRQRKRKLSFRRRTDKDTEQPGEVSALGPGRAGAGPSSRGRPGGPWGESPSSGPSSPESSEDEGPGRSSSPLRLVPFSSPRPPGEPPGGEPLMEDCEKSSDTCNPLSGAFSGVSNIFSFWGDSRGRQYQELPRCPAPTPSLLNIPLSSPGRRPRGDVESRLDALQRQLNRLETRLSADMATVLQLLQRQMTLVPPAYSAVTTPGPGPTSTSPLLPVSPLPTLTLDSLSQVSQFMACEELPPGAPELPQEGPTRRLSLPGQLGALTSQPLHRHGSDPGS
UniProt Q9BZP6, 22-476: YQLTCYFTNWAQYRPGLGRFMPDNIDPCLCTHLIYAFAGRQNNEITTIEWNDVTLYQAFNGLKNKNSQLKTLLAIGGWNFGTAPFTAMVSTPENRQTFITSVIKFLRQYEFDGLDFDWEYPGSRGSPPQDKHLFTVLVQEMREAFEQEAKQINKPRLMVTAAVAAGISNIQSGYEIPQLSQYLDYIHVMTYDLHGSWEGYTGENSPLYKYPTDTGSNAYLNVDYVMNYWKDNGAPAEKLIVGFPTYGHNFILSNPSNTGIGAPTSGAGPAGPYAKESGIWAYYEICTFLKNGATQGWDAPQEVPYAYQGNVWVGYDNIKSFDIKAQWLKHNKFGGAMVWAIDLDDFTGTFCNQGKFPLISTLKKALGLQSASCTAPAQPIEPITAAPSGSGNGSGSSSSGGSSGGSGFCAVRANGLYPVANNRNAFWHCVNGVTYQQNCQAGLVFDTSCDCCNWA

SMILES strings stand for the structures. pIC50: −log10 of the molar value.

One test deals with hERG channel (Homo sapiens (Human), UniProt Q12809). The test is described as follows: Human ERG channel binding assay (fluorescence polarization).
The target in another test is recombinant human AMCase (Homo sapiens (Human), UniProt Q9BZP6). Description: Human AMCase activity assay. Type of test: biochemical. The following applies: citrate buffer pH 5.2, 37° C., 60 minutes, read-out: hAMCase, IC50. The method, then:
The assay was run in the 96-well plate format, each reaction in the total volume of 100 μL. 4-Methylumbelliferyl B-D-N,N′-diacetylchitobioside hydrate was used as a substrate for the enzyme. Upon hydrolysis by AMCase, the substrate releases 4-methylumbelliferyl (4MU) that, when ionized in basic pH, emits fluorescence at 460 nm. Briefly, 40 μL of a substrate was added to each well, followed by 10 μL of compound dilution and 50 μL of hAMCase recombinant enzyme solution. The reaction was carried out in citrate buffer, pH 5.2, in the dark, at 37° C. for 60 minutes with shaking. […] The IC50 values were calculated using GraphPad Prism.

At hERG channel, `Nc1nnc(N2CCC(N3C[C@H](COCC(F)F)OC[C@@H]3Cc3ccc(Cl)cc3)CC2)[nH]1` [Example 43, 5-(4-((2R,5S)-5-(4-chlorobenzyl)-2-((2,2-difluoroethoxy)methyl)morpholino)-piperidin-1-yl)-4H-1,2,4-triazol-3-amine 2,2,2-trifluoroacetate] gave a pIC50 of 5.00 to 6.00. Turning to `CC1(O)CCN(C2CCN(c3nnc(N)[nH]3)CC2)[C@@H](Cc2ccc(Cl)cc2)C1` (stereo partly drawn) [Example 59, (2S)-1′-(5-amino-4H-1,2,4-triazol-3-yl)-2-(4-chlorobenzyl)-4-methyl-[1,4′-bipiperidin]-4-ol 2,2,2-trifluoroacetate], on recombinant human AMCase, the pIC50 is above 7.00. Same read-out and setting: in the case of `CO[C@@H]1CC[C@H](Cc2ccc(Cl)cc2)N(C2CCN(c3nnc(N)[nH]3)CC2)C1` [Example 71, 5-((2R,5R)-2-(4-chlorobenzyl)-5-methoxy-[1,4′-bipiperidin]-1′-yl)-4H-1,2,4-triazol-3-amine 2,2,2-trifluoroacetate] it was above 7.00.
